Reference: ChEMBL document CHEMBL1156869, “Selective inhibitors of the JMJD2 histone demethylases: combined nondenaturing mass spectrometric screening and crystallographic approaches” (J Med Chem, 2010)

Molecular target: T1, Lysine-specific demethylase 4A (Homo sapiens, UniProt O75164)
T1 sequence (O75164 whole entry): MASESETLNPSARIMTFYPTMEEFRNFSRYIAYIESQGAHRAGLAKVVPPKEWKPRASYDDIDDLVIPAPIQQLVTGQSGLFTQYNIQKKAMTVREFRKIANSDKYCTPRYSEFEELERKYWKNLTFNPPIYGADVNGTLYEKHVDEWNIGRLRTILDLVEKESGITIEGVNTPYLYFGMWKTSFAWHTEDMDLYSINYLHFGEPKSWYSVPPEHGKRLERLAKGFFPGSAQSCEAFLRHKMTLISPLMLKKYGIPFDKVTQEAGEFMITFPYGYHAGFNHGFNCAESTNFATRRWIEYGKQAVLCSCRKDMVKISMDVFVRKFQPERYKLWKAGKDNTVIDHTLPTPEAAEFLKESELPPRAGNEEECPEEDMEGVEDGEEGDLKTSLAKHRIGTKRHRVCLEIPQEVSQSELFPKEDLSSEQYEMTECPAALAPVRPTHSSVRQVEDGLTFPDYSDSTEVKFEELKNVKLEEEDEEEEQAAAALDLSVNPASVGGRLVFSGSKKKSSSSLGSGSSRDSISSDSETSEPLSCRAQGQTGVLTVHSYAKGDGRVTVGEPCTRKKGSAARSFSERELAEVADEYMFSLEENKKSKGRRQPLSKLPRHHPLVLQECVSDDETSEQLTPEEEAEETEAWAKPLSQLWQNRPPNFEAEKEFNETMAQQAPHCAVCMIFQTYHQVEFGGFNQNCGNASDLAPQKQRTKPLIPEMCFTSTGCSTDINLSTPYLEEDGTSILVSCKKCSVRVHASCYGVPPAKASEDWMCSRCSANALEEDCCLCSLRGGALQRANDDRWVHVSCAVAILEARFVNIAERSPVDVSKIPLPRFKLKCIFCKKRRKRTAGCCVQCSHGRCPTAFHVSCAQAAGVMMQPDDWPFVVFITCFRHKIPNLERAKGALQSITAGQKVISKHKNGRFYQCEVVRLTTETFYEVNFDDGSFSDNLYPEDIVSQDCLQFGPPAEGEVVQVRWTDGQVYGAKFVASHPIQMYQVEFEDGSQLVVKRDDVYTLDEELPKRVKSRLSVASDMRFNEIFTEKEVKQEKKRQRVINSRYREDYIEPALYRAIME
Experiment: Inhibition of JMJD2A by MALDI-TOF assay
Procedure, shortened: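 Reaction started with 2OG (10 μM) and ARKme3STGGK peptide (10 μM), then 30 min at 37 °C. Quenched with methanol. MALDI-TOF methylation-state intensities gave % demethylation; IC50 from concentration variation.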

O=C(O)C(=O)N[C@H](Cc1ccc(OCc2ccccc2)cc1)C(=O)O
IC50: 33 µM
